# Antibody variant affinities, Ab-14 heavy chain, assay 1

Source: Engelhart et al. 2022 (doi:10.1038/s41597-022-01779-4), MIT Lincoln Laboratory and A-Alpha Bio; data file from the FLAb repository.

Target peptide (SARS-CoV-2 spike, HR2 region): PDVDLGDISGINAS

Ab-14 is the parent antibody, in scFv form: VH, then the linker GGGGSGGGGSGGGGS, then VL. The light chain is unchanged in all variants.
VH: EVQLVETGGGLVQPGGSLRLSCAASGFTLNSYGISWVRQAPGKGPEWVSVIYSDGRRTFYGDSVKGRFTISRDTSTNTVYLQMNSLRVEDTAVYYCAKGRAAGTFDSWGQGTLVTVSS
VL: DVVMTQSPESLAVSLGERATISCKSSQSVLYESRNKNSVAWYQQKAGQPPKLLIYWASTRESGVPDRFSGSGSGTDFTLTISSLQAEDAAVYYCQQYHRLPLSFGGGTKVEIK

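In library AAYL49, one, two or three CDR residues were substituted; doubles and triples were drawn at random. The scFvs were displayed on barcoded MATa yeast, the peptide on MATalpha yeast. Binding brings cells together so that they mate, and sequencing counts the barcode pairs among the diploids. Read counts were normalised to the haploid input and turned into Kd by a linear fit to BCL2-family pairs of known affinity, for each replicate. Each pool was mated in three replicate cultures.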

The parent's heavy chain CDRs are GFTLNSYGIS, VIYSDGRRTFYGDSVK, GRAAGTFDS; each variant's own CDRs replace them letter for letter.
This list gathers variants with a substitution at T104 (VH, numbered from residue 1).
Numbers give log10(Kd / nM), so 0 is 1 nM and 3 is 1 µM. Smaller is tighter.
Averages over replicates are reported, and they cover detected replicates only.
Where no diploid with the target was found in any replicate, the entry reads "no signal": below detection, most likely a poor binder, though not proof of it.
Order: sorted from the lowest average up, undetected variants last.
Empty control strains, which show no peptide, gave a signal in 15% of pairings with library AAYL49; the median was 4.06 and 95% of these signals were weaker than 2.83. No background was subtracted. The control count says in how many pairings with the empty strains this scFv gave a signal.

For GFTLNSYGIS | VIYSDGRRTFYGNSVK | GRAAGIFDV, the assay gave 1.23 (3 of 3 replicates; controls 2 of 9). With GFSLNSYGIS | VIYSDGRRTFYGDSVK | GRAAGETDS the result was 1.53 (3 of 3 replicates; controls 1 of 9). The variant GFTLNSYGIS | VIYSDGRRTFYGDSVQ | GRAAGKFDS gave 2.04 (3 of 3 replicates; controls 3 of 9). With GFTLNSYGIS | VIYSDGRRTFYGDSVK | GHAAGWFDS the result was 2.78 (3 of 3 replicates; controls 3 of 9). For FFTLNSYGIS | VIYSDGRRTFYGDSVL | GRAAGEFDS, the assay gave 3.31 (2 of 3 replicates; controls 3 of 9). For GATLNSYGIS | VIYSDGRRIFYGDSVK | GRAAGEFDS, the assay gave 3.57 (3 of 3 replicates; controls 0 of 9).

The variant GFTLTSYGIW | VIYSDGRRTFYGDSVK | GRAAGAFDS showed 4.01 (2 of 3 replicates; controls 3 of 9). The variant GFTLNSYGIS | DIYSDGRRTFYKDSVK | GRAAGKFDS gave 4.05 (3 of 3 replicates; controls 0 of 9). With GFTLNSYMIS | VIYSDGRQTFYGDSVK | GRAAGKFDS the result was 4.06 (1 of 3 replicates; controls 0 of 9). The variant HFTLNSYGIS | VIASDGRRTFYGDSVK | GRAAGYFDS gave 4.19 (2 of 3 replicates; controls 2 of 9). The variant GFTLNSYGIS | NIYSDGRMTFYGDSVK | GRAAGDFDS gave 4.59 (2 of 3 replicates; controls 3 of 9). With GFTLNSSGLS | VIYSDGRRTFYGDSVK | GRAAGFFDS the result was 4.64 (1 of 3 replicates; controls 2 of 9).

The variant GFTLNSYGIS | VIYKDGRRTFYGDHVK | GRAAGAFDS gave 4.75 (1 of 3 replicates; controls 3 of 9). For GFTLNSYGIS | VIYSDGRRTFYGYSVK | GRAGGWFDS, the assay gave 4.93 (2 of 3 replicates; controls 6 of 9). The variant GFTLNSAGIS | FIYSDGRRTFYGDSVK | GRAAGYFDS gave 5.01 (1 of 3 replicates; controls 3 of 9). The variant GFTLNLYGIS | VIYSDGRRTFMGDSVK | GRAAGPFDS showed 5.08 (1 of 3 replicates; controls 2 of 9). For GFTLNSYGIS | VIYSDGRRTFYGDLVK | DRAAGNFDS, the assay gave 5.53 (2 of 3 replicates; controls 6 of 9). The variant GFTSNSYGIS | VIYSDGCRTFYGDSVK | GRAAGIFDS showed 5.56 (1 of 3 replicates; controls 1 of 9).

The variant GFTLNSYGIS | VIYPDGRNTFYGDSVK | GRAAGPFDS gave 5.85 (1 of 3 replicates; controls 2 of 9). The variant GFTLNSYGIS | VIVSDGRRTFYGSSVK | GRAAGPFDS gave no signal (0 of 3 replicates; controls 1 of 9). For GFTLNSYGIS | VIYSVGRRAFYGDSVK | GRAAGQFDS, the assay gave no signal (0 of 3 replicates; controls 2 of 9). For GFTLFSYGIS | VIYSDGRRTFYGDSVK | GRAAGFLDS, the assay gave no signal (0 of 3 replicates; controls 0 of 9). With GFDLNSYGIS | VIYSDGRSTFYGDSVK | GRAAGEFDS the result was no signal (0 of 3 replicates; controls 0 of 9). For GFTLNSYGIP | VIYSDGRRTVYGDSVK | GRAAGAFDS, the assay gave no signal (0 of 3 replicates; controls 1 of 9).

With GFTCNSYGIS | VIYSDGRRTFYGDSVK | GRAALGFDS the result was no signal (0 of 3 replicates; controls 0 of 9). For GFTLNSYGIS | VLHSDGRRTFYGDSVK | GRAAGKFDS, the assay gave no signal (0 of 3 replicates; controls 1 of 9). For GFTLNSYGIS | VIYSDGRRTFYGPSVK | GRAAGEYDS, the assay gave no signal (0 of 3 replicates; controls 2 of 9). With GFTLNSSGIS | VIYSKGRRTFYGDSVK | GRAAGHFDS the result was no signal (0 of 3 replicates; controls 4 of 9). With GFTRNSYGIS | VIYSDGRRTFYGDSVK | GRAVGQFDS the result was no signal (0 of 3 replicates; controls 2 of 9). The variant GLTLNSYGIS | VIYSDGRRTFYGDSVK | GPAAGNFDS showed no signal (0 of 3 replicates; controls 0 of 9).

For GFTLNSYGIS | VIYSDGRRTFYGDSVK | GRLAGWFRS, the assay gave no signal (0 of 3 replicates; controls 0 of 9). The variant GFTLNSYGIS | VIYSDGRRTFYGDSNK | GWAAGEFDS gave no signal (0 of 3 replicates; controls 1 of 9). With GFTLNSYCIS | VIYSDGRRTFYGDVVK | GRAAGAFDS the result was no signal (0 of 3 replicates; controls 0 of 9). The variant GFTYNSYGIS | VIYSDGRRTFYGDSVK | GRAAGWFDI gave no signal (0 of 3 replicates; controls 0 of 9). With VFTLNSYGIS | VIYSDGRRTFYGDSVK | WRAAGAFDS the result was no signal (0 of 3 replicates; controls 0 of 9).

2 of these entries, quoted again:

For GFTYNSYGIS | VIYSDGRRTFYGDSVK | GRAAGWFDI, the assay gave no signal (0 of 3 replicates; controls 0 of 9).
For GFTLNSYGIS | VLHSDGRRTFYGDSVK | GRAAGKFDS, the assay gave no signal (0 of 3 replicates; controls 1 of 9).

Parent in this assay: reference entry 0.65, copy in this library 4.11 (one replicate of three).